What was measured:
Phakopsora pachyrhizi [1] = test: Protective control of soybean rust on soybeans, inoculation 2 days after treatment (PHAKPA P2); format: in vivo; details: soybean seedlings inoculated 2 days after treatment, strain with F129L in cytochrome b, % diseased leaf area, untreated controls usually higher than 85 %; for PHAKPA Disease level (%) P2 at 4 ppm: 4 ppm spray; for PHAKPA Disease level (%) P2 at 16 ppm: 16 ppm spray
Phakopsora pachyrhizi [2] = test: Protective control of soybean rust on soybeans, inoculation six days after treatment (PHAKPA P6); format: in vivo; details: soybean seedlings inoculated six days after treatment, strain with F129L in cytochrome b, % diseased leaf area, untreated controls usually higher than 85 %; for PHAKPA Disease level (%) P6 at 4 ppm: 4 ppm spray; for PHAKPA Disease level (%) P6 at 16 ppm: 16 ppm spray

| SMILES | PHAKPA Disease level (%) P2 at 4 ppm (Phakopsora pachyrhizi [1]) [%] | PHAKPA Disease level (%) P2 at 16 ppm (Phakopsora pachyrhizi [1]) [%] | PHAKPA Disease level (%) P6 at 4 ppm (Phakopsora pachyrhizi [2]) [%] | PHAKPA Disease level (%) P6 at 16 ppm (Phakopsora pachyrhizi [2]) [%] |
| --- | --- | --- | --- | --- |
| CO/N=C(/C(=O)OC)c1cccc(C)c1CO/N=C(\C)c1cc(C#N)cc(Cl)n1 [Example 64] | 60 | 30 | 63 | 12 |
| CO/N=C(/C(=O)OC)c1cccc(C)c1CO/N=C(\C)c1cccc(C)n1 [Example 65] | 100 | 35 | 100 | 37 |
| CO/N=C(/C(=O)OC)c1cccc(C)c1CO/N=C(\C)c1cc2ccccc2cn1 [Example 66] | 60 | 38 | 57 | 23 |
| CNC(=O)/C(=N/OC)c1cccc(C)c1CO/N=C(\C)c1ccc(C#CC2CC2)nc1 [Example 69] | 77 | 50 | 87 | 57 |
| CNC(=O)/C(=N/OC)c1cccc(C)c1CO/N=C(/c1cc(C(F)(F)F)ccn1)C1CC1 [Example 70, (2E)-2-[2-[[(E)-[cyclopropyl-[4-(trifluoromethyl)-2-pyridyl]methylene]amino]oxymethyl]-3-methyl-phenyl]-2-methoxyimino-N-methyl-acetamide] | 5 | 0 | 14 | 1 |
| CO/N=C(/C(=O)OC)c1cccc(C)c1CO/N=C(/c1cc(C(F)(F)F)ccn1)C1CC1 [Example 72, Methyl (2E)-2-[2-[[(E)-[cyclopropyl-[4-(trifluoromethyl)-2-pyridyl]methylene]amino]-oxymethyl]-3-methyl-phenyl]-2-methoxyimino-acetate] | 70 | 22 | 77 | 18 |
| CO/N=C(/C(=O)OC)c1cccc(C)c1CO/N=C(\C)c1ncccc1F [Example 74] | 97 | 28 | 80 | 67 |
| CO/N=C(/C(=O)OC)c1cccc(C)c1CO/N=C(\C)c1cncc(F)c1 [Example 75] | 100 | 97 | 100 | 97 |
| CNC(=O)/C(=N/OC)c1cccc(C)c1CO/N=C(\C)c1cncc(F)c1 [Example 76] | 93 | 40 | 97 | 70 |
| CNC(=O)/C(=N/OC)c1cccc(C)c1CO/N=C(\C)c1ncccc1F [Example 77] | 26 | 4 | 53 | 10 |
| CNC(=O)/C(=N/OC)c1cccc(C)c1CO/N=C(\C)c1ncc(-c2ccc(F)cc2)s1 [Example 78, (2E)-2-[2-[[(E)-1-[5-(4-fluorophenyl)thiazol-2-yl]ethylideneamino]oxymethyl]-3-methyl-phenyl]-2-methoxyimino-N-methyl-acetamide] | 87 | 90 | 88 | 90 |
| CO/N=C(/C(=O)OC)c1cccc(C)c1CO/N=C(\C)c1ncc(-c2ccc(F)cc2)s1 [Example 79, Methyl (2E)-2-[2-[[(E)-1-[5-(4-fluorophenyl)thiazol-2-yl]ethylideneamino]oxymethyl]-3-methyl-phenyl]-2-methoxyimino-acetate] | 95 | 92 | 92 | 85 |
| CNC(=O)/C(=N/OC)c1cccc(C)c1CO/N=C(\C)c1cc(C(F)(F)F)cc(C)n1 [Example 80] | 4 | 0 | 15 | 0 |
| CNC(=O)/C(=N/OC)c1cccc(C)c1CO/N=C(\C)c1cccc(C)n1 [Example 81] | 97 | 63 | 97 | 87 |
| CO/N=C(/C(=O)OC)c1cccc(C)c1CO/N=C(\C)c1cncc(C(F)(F)F)c1 [Example 84, methyl (2E)-2-methoxyimino-2-[3-methyl-2-[[(E)-1-[5-(trifluoromethyl)-3-pyridyl]ethylideneamino]oxymethyl]phenyl]acetate] | 100 | 100 | 90 | 83 |
| CNC(=O)/C(=N/OC)c1cccc(C)c1CO/N=C(\C)c1cncc(C(F)(F)F)c1 [Example 85, (2E)-2-methoxyimino-N-methyl-2-[3-methyl-2-[[(E)-1-[5-(trifluoromethyl)-3-pyridyl]-ethylideneamino]oxymethyl]phenyl]acetamide] | 100 | 43 | 100 | 77 |

Reference: patent EP3970494A1 (priority 2020, dated 2022)
